From US5932208A, “Compositions and methods for the use of such compositions in human therapeutics, characterized by the association of a muramyl peptide with a cytokine” (Vacsyn S.A., priority 1993, dated 1999)

Test system: KHT sarcoma cells
Assay: KHT sarcoma model in C3H/HeN mice, IL-2 with murametide
Type: in vivo
Procedure: A murine model has been developed in C3H/HeN mice. KHT sarcoma cells are administered by the venous route. After 4 days and 6 days they are treated with:
c) the association of the two immunomodulators;
d) a fourth group is not treated.

## IL-2: cytokine interleukin-2
  Toxicity of IL-2 in mice having tumours: congregate together and are generally inactive
